Source: ChEMBL document CHEMBL1250514, “Fragment-based drug discovery applied to Hsp90. Discovery of two lead series with high ligand efficiency” (J Med Chem, 2010)

Chains of the proteins cited; added tags and fusions are not shown. Lines headed by an entry give the natural chain unless they say otherwise; changes in a name come on top.
UniProt P08238: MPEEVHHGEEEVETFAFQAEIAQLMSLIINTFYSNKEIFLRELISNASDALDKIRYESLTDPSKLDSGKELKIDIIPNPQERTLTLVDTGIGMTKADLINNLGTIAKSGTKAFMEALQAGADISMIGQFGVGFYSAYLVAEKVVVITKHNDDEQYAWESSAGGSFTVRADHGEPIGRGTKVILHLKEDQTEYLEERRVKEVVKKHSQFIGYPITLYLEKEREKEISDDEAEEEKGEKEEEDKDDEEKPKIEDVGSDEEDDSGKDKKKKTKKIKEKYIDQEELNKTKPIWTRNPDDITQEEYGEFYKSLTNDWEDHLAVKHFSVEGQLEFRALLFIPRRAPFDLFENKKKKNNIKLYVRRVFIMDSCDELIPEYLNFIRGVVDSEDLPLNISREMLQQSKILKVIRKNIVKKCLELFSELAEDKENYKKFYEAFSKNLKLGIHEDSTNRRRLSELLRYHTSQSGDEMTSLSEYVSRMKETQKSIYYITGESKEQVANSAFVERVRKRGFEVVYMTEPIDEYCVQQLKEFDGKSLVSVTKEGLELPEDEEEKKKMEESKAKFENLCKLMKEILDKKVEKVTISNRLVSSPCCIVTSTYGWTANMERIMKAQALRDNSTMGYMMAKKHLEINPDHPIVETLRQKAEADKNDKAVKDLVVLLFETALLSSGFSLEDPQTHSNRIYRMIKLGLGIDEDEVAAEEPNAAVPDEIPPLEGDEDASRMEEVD

Biological target: Heat shock protein HSP90 (Homo sapiens, UniProt P07900+P08238)

Kd: 4.8 nM
Compound: Nc1nc(Cl)cc(-c2cc(OCCN3CCOCC3)c(Cl)cc2Cl)n1
